Reference: patent US20080009485A1, “Methods for the use of inhibitors of cytosolic phospholipase A2 in the treatment of thrombosis” (Wyeth, priority 2006, published 2008)

System: human platelets
Settings: whole human blood, 10 μM ADP; Example 44 tested from 0.31 to 5 μg/ml

In the case of `CC(=O)Oc1ccccc1C(=O)O` [aspirin, reference compound], the “inhibition of platelet dense granule ATP release reaction” value was “able to completely inhibit the process in vitro, albeit at higher concentrations”.
